CAL PDZ FP-1: inhibitors of human CAL PDZ peptide binding. Q9HD26. purified CAL PDZ, TMR-peptide fluorescence polarization, 1 h. inhibition, % at 24.9 µM. 300,000 compounds, 0.92% hits. AID 602252;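 active = mean inhibition of at least 30% with at least half of replicates also reaching 30%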;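 note: 0% = DMSO neutral control and 100% = excess unlabeled competitor peptide PRC23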
Vif imaging: inhibitors of HIV Vif; HEK293T cells, Vif self-association by quenched fluorescence, imaging, 24 h; inhibition, % at 7.49 µM; 340,000 compounds, 0.35% hits; AID 602346; in the data active = inhibition above about 50%, passing the limit was not always enough
ARNT-TACC3 inh: disrupts binding between human ARNT and TACC3 | AlphaScreen His-ARNT PAS-B/GST-TACC3 binding, luminescence; TACC3 fragment carries E629A point mutation | 390,000 compounds, 0.66% hits | AID 623870 | Q9Y6A5 | inhibition, % at 9.99 µM;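 active = mean inhibition of replicates at least 50% and at least half of replicates each reaching 50%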;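 note: 0% = complete ARNT plus TACC3 wells and 100% = ARNT alone without TACC3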
Yeast UUG start: yeast start codon fidelity modulation; activity score, % at 18.7 µM; actives 0.13% (n = 350,000); S. cerevisiae UUG-firefly luciferase reporter, luminescence/redox ratio; AID 602363;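 active means replicate mean at a twofold rise or more, about +100% in these data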;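 further: firefly luciferase made from a UUG start codon reports start codon fidelity; reporter light over untreated wells divided by growth signal over untreated wells; some hits fall short of that in this replicate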
PglD DTNB: blocks C. jejuni PglD acetyltransferase activity; purified PglD enzyme, DTNB colorimetric CoA detection; AID 602405; inhibition, % at 12.5 µM; 360,000 compounds, 0.098% hits; in the data active = inhibition above about 16%, passing the limit was not always enough
CAL PDZ FP-2: human CAL PDZ-peptide interaction inhibition. Q9HD26. purified CAL PDZ, TMR-peptide fluorescence polarization, 1 h. inhibition, % at 20 µM. 330,000 compounds, 0.02% hits. AID 504414;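 active = highest replicate inhibition of at least 40%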;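 note: plate controls were DMSO neutral control wells for no effect and unlabeled competitor peptide control wells for full effect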
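material = purified tagged CAL PDZ domain construct (CerCALP) | buffer or medium = sodium phosphate/NaCl buffer pH 7.4 with TCEP, IgG, Thesit | reagent = TMR-labelled reporter peptide T*-PRC34 bound in PDZ groove | incubation = 1 h room-temperature incubation prior to read | measured by = fluorescence polarization (mP) | evaluation = percent inhibition from loss of millipolarization | control set = unlabelled peptide and DMSO controls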
Active calls of the source: *; x = no result. This is a sample that favours compounds with a hit; in the whole collection about 1.6% have one here.

1) Cc1ccc(C(c2cc(Cl)c3cccnc3c2O)N2CCN(C)CC2)cc1 (stereo not drawn)
2) CC(=O)NC(c1ccco1)c1cc(Cl)c2cccnc2c1O (stereo not drawn)
3) CC(=O)NC(c1cc(Cl)c2cccnc2c1O)C1CC1 (stereo not drawn)
4) CC(=O)NC(c1ccc(C)cc1)c1cc(Cl)c2cccnc2c1O (stereo not drawn)
5) CCC(=O)NC(c1ccc(OC)cc1)c1cc(Cl)c2cccnc2c1O (stereo not drawn)
6) C[C@H](CO)N1C[C@H](C)[C@H](CN(C)C(=O)Nc2ccccc2)Oc2ccc(NS(=O)(=O)c3cn(C)cn3)cc2C1=O

Compound | 1 | 2 | 3 | 4 | 5 | 6
CAL PDZ FP-1 | 7 | x | -6 | -4 | x | x
Vif imaging | 54* | 11 | 5 | 3 | -3 | x
ARNT-TACC3 inh | x | x | 69* | 5 | 0 | -4
Yeast UUG start | -56 | -24 | -17 | -8 | x | -10
PglD DTNB | 6 | 2 | 0 | 3 | x | -3
CAL PDZ FP-2 | -1 | x | -2 | -18 | 0 | x

Part of the list above, reformatted.
#6 C[C@H](CO)N1C[C@H](C)[C@H](CN(C)C(=O)Nc2ccccc2)Oc2ccc(NS(=O)(=O)c3cn(C)cn3)cc2C1=O
  CAL PDZ FP-1 = x	Vif imaging = x	ARNT-TACC3 inh = -4	Yeast UUG start = -10	PglD DTNB = -3	CAL PDZ FP-2 = x
#2 CC(=O)NC(c1ccco1)c1cc(Cl)c2cccnc2c1O (stereo not drawn)
  CAL PDZ FP-1 = x	Vif imaging = 11	ARNT-TACC3 inh = x	Yeast UUG start = -24	PglD DTNB = 2	CAL PDZ FP-2 = x
#5 CCC(=O)NC(c1ccc(OC)cc1)c1cc(Cl)c2cccnc2c1O (stereo not drawn)
  CAL PDZ FP-1 = x	Vif imaging = -3	ARNT-TACC3 inh = 0	Yeast UUG start = x	PglD DTNB = x	CAL PDZ FP-2 = 0

Continuation.
7) CC(C)C(=O)Nc1ccc2c(c1)C(=O)N(C)[C@@H]1CC[C@H](CC(=O)N[C@@H](C)c3ccccc3)O[C@@H]1CO2
8) C[C@@H]1CN([C@H](C)CO)C(=O)c2cc(NC(=O)CCN3CCOCC3)ccc2O[C@@H]1CN(C)S(C)(=O)=O
9) O=C(O)CCCCn1c(SCc2cc(=O)n3cc(Cl)ccc3n2)nc2ccsc2c1=O
10) O=C(O)CCCCn1c(SCc2ccccc2Cl)nc2ccsc2c1=O
11) COCCNC(=O)C[C@@H]1CC[C@@H]2[C@@H](COc3ccc(NC(=O)COC)cc3C(=O)N2C)O1
12) CCCCN1CCc2c([nH]c3c(C)cccc23)C1=O

Compound | 7 | 8 | 9 | 10 | 11 | 12
CAL PDZ FP-1 | x | x | -4 | -4 | x | 72*
Vif imaging | x | x | -6 | 59* | x | 1
ARNT-TACC3 inh | -9 | -8 | 0 | -24 | -3 | -3
Yeast UUG start | 15 | -9 | x | x | 1 | -7
PglD DTNB | 1 | -1 | x | x | 1 | -4
CAL PDZ FP-2 | x | x | -2 | -4 | x | -1

13) CCCc1c(C)c2cccc(C)c2[nH]c1=O
14) CCOc1ccc(NC(=O)CCN2CCN(S(=O)(=O)c3ccc(F)cc3)CC2)cc1
15) COc1ccc(CN(C)C[C@@H]2Oc3ccc(NC(=O)Nc4ccccc4)cc3CC(=O)N([C@H](C)CO)C[C@@H]2C)cc1
16) Cc1cc(NC(=O)c2c(Br)c(C)nn2C)no1
17) COc1ccc(NC(C)=O)cc1NC(C)c1nc2sc(C)c(C)c2c(=O)[nH]1 (stereo not drawn)
18) COc1ccc(OC)c(NC(=O)C(C)SCc2nc3sc(C)c(C)c3c(=O)[nH]2)c1 (stereo not drawn)

Compound | 13 | 14 | 15 | 16 | 17 | 18
CAL PDZ FP-1 | -6 | 74* | x | 83* | 59* | 15
Vif imaging | x | 10 | x | -2 | -7 | -5
ARNT-TACC3 inh | -8 | -2 | 15 | -6 | 3 | 20
Yeast UUG start | -20 | -5 | -1 | x | x | -9
PglD DTNB | -2 | -5 | -4 | x | x | 0
CAL PDZ FP-2 | x | 0 | x | 0 | -2 | -2

19) N#C[C@H]1N[C@H](CO)[C@@H]1c1ccc(-c2ccccc2F)cc1
20) COc1ccc(S(=O)(=O)NCc2ccc3c(c2)OCO3)cc1OC
21) COc1ccc(S(=O)(=O)NCc2ccc3c(c2)OCO3)cc1C
22) O=C(Cc1sc(Nc2ccccc2)nc1-c1ccccc1)NCc1ccccc1
23) O=C(Cc1sc(-c2ccccc2)nc1-c1ccccc1)Nc1ccccc1
24) COC(=O)c1ccc(NCc2c(O)ccc(O)c2Br)cc1Cl

Compound | 19 | 20 | 21 | 22 | 23 | 24
CAL PDZ FP-1 | x | -2 | 0 | -1 | 3 | 1
Vif imaging | x | 114* | 1 | 98* | -1 | 70*
ARNT-TACC3 inh | 24 | -9 | -15 | 4 | -8 | 7
Yeast UUG start | 1 | -18 | -3 | x | -16 | x
PglD DTNB | -1 | 1 | -5 | x | -3 | x
CAL PDZ FP-2 | x | 0 | -3 | -1 | -1 | -1

25) COC(=O)c1ccc(NCc2cc(O)ccc2O)cc1O
26) COC(=O)c1cc(NCc2c(F)cccc2Cl)ccc1N1CCOCC1
27) C=CC(=O)NCc1ccc(-c2csnn2)cc1
28) C=CCn1c(O)c(C2=c3ccccc3=NC2=O)s/c1=N/c1nccs1
29) Brc1nc(-c2ccccc2)nc(-c2ccccc2)c1Br
30) CO[C@H]1CN(C)C(=O)c2ccc(NC(=O)C3CC3)cc2OC[C@@H](C)N(CCc2ccccc2)C[C@H]1C

Compound | 25 | 26 | 27 | 28 | 29 | 30
CAL PDZ FP-1 | -6 | -3 | 57* | x | x | x
Vif imaging | 85* | -19 | -1 | 88* | 69* | x
ARNT-TACC3 inh | 6 | -11 | -10 | -3 | x | -16
Yeast UUG start | x | -17 | -17 | 2 | -3 | 8
PglD DTNB | x | 0 | 3 | x | -6 | -3
CAL PDZ FP-2 | -1 | 0 | 1 | 0 | x | x

Compound activity as filed in PubChem.
